{
  "source": "paper PMC9655119",
  "about": "“Sustained Activation of CLR/RAMP Receptors by Gel-Forming Agonists” (International Journal of Molecular Sciences, 2022)",
  "origin": "cited, not measured here",
  "conditions": "cited from earlier work",
  "description": "Because the rate of dissociation of hydrogels depends on electrostatic interactions among the monomeric peptide, solvent, and solutes, the release of Analog C-6 from the gel solution is likely affected by various environmental factors. Therefore, it is important to characterize the release kinetics of the analog gel in vivo before we can reasonably design studies to investigate its efficacy in animals. […] In the th ...",
  "note": "Read-outs that look alike come from different tables or passages of the source.",
  "data": [
    {"substance": "adrenomedullin [ADM]", "values": [
      {"measurement": "half-life", "result": "~ 20 min"},
      {"measurement": "half-life", "setting": "stated as known, no reference given", "result": "20 to 30", "unit": "min"}
    ]}
  ]
}
